This passage reports IC50 results from US9487490B2, “3-cyclohexenyl and cyclohexyl substituted indole and indazole compounds as RORgammaT inhibitors and uses thereof” (Merck Sharp & Dohme Corp., priority 2012, dated 2016).

Sequences of proteins named here, by UniProt entry; tags and fusion partners are left off. Residues count along the entry.
UniProt P51449, 269-508: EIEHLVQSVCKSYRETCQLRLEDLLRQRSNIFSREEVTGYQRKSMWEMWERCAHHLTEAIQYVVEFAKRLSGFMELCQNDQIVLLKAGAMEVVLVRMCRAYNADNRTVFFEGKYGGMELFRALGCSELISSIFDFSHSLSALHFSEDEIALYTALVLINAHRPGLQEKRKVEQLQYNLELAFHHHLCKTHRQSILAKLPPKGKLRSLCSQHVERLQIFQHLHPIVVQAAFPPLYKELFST

This assay deals with human RORgammaT-Ligand Binding Domain (LBD) (Homo sapiens (Human), UniProt P51449). Nature of the assay: RORγ-Ligand Binding Domain TR-FRET assay (co-activator peptide SRC1_2 recruitment). The note with it: HIS-tagged RORγ-LBD 3 nM, biotinylated SRC1 LXXLL peptide 100 nM, incubated overnight at 4° C., 665 nm/615 nm signal quotient. It is filed as biochemical. From the text:
Activation of RORgammaT activity can be measured using, e.g., biochemical TR-FRET assay. In such an assay, interaction of cofactor-derived peptides with human RORgammaT-Ligand Binding Domain (LBD) can be measured.
To identify novel antagonists of RORgammaT, an assay was developed which employs the interaction of RORgammaT with its co-activator peptide SRC1_2. […] The RORγ-Ligand Binding Domain TR-FRET Assay was run according to the following protocol.
HIS-tagged RORγ-LBD protein was expressed in SF9 cells using a baculovirus expression system. The RORγ-LBD protein was purified by glutathione sepharose chromatography. Separately, SF9 cells not expressing any recombinant protein were lysed and the lysate was added to the purified RORγ-LBD at 0.25 μl lysate (from 10,000 SF9 cells)/nM purified protein. The mixture was then diluted in assay buffer (50 mM Tris pH 7.0, 50 mM KCl, 1 mM EDTA, 0.1 mM DTT) to obtain RORγ-LBD final concentration of 3 nM in 384-well assay plate.
Compounds to be tested were injected to the assay plate using Acoustic Droplet Ejection technology by Echo 550 liquid handler (Labcyte, Calif.).
Usually IC50 stands for the concentration needed to halve the response being measured. A low value points to greater potency. With `O=C(O)C1CC=C(c2nn(C(=O)c3c(Cl)cccc3C3CC3)c3cccc(F)c23)CC1` (single isomer, unassigned) [Example 3A, (R or S)-4-(1-(2-chloro-6-cyclopropylbenzoyl)-4-fluoro-1H-indazol-3-yl)cyclohex-3-enecarboxylic acid], the IC50 is 6 nM.
The same measure for `O=C(O)C1CC=C(c2nn(C(=O)c3c(Cl)cccc3C3CC3)c3cccc(F)c23)CC1` (single isomer, unassigned) [Example 3B, (S or R)-4-(1-(2-chloro-6-cyclopropylbenzoyl)-4-fluoro-1H-indazol-3-yl)cyclohex-3-enecarboxylic acid]: 5 nM.
With `COC1CCN(C(=O)c2ccc3c(C4=CCC(C(=O)O)CC4)nn(C(=O)c4c(Cl)cccc4C(F)(F)F)c3c2)C1` (centres unmarked) [Example 4I, 4-(1-(2-chloro-6-(trifluoromethyl)benzoyl)-6-(3-methoxypyrrolidine-1-carbonyl)-1H-indazol-3-yl)cyclohex-3-enecarboxylic acid], the IC50 came out at 3 nM.
Next, `O=C(c1c(Cl)cccc1C(F)(F)F)n1nc([C@H]2CC[C@H](C(=O)O)CC2)c2c(F)cccc21` [Example 8A, (trans)-4-(1-(2-chloro-6-(trifluoromethyl)benzoyl)-4-fluoro-1H-indazol-3-yl)cyclohexanecarboxylic acid]: 16 nM.
The same measure for `O=C(c1c(Cl)cccc1C(F)(F)F)n1nc([C@H]2CC[C@@H](C(=O)O)CC2)c2c(F)cccc21` [Example 8B, (cis)-4-(1-(2-chloro-6-(trifluoromethyl)benzoyl)-4-fluoro-1H-indazol-3-yl)cyclohexanecarboxylic acid]: 505 nM.
